pIC50: −log10 of the molar value.
How the values were obtained:
hamster Abcb1a Pgp = hamster Abcb1a Pgp (Cricetulus griseus, UniProt P21448); assay: Fluorosome-trans-pgp
human MDR1 Pgp = human MDR1 Pgp (Homo sapiens, UniProt P08183); assay: Inhibition of net [3H]digoxin transport in LLC-MDR1 cell monolayers; type: cell-based

Protein sequences, listed by entry. Tags and fused reporters are not part of them.
UniProt P21448, whole entry: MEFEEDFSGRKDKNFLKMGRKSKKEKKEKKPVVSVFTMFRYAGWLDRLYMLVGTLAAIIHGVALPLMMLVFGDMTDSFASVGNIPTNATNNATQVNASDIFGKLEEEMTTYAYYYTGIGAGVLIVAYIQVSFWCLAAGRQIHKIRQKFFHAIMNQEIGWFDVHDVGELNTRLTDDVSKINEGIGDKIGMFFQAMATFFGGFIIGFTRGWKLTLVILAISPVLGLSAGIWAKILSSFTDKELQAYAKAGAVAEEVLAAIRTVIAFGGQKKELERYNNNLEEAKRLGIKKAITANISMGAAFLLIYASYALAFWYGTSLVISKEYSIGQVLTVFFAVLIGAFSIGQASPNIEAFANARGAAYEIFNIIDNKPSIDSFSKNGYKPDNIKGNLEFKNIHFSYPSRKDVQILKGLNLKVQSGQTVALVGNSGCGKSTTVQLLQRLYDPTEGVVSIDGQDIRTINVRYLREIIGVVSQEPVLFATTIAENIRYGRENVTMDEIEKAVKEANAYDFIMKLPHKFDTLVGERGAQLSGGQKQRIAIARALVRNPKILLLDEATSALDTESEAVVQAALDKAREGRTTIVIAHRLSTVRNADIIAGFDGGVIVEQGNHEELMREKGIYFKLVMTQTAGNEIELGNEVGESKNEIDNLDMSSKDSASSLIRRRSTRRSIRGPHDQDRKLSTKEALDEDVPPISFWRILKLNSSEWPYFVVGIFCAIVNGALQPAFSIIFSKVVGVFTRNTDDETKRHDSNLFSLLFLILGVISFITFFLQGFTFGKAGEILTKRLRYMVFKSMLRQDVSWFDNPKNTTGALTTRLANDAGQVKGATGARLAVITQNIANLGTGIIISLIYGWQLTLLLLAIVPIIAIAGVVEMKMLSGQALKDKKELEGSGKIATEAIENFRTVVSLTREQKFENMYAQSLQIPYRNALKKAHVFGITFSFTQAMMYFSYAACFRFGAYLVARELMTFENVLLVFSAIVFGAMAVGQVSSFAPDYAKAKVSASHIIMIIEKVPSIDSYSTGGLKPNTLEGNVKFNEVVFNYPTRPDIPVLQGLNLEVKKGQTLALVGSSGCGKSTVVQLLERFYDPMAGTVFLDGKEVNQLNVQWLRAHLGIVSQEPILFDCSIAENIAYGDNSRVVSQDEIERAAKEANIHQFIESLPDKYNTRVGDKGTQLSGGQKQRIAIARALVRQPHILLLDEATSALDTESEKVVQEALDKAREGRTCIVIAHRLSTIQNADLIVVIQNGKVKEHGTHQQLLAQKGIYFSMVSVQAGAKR
UniProt P08183, whole entry: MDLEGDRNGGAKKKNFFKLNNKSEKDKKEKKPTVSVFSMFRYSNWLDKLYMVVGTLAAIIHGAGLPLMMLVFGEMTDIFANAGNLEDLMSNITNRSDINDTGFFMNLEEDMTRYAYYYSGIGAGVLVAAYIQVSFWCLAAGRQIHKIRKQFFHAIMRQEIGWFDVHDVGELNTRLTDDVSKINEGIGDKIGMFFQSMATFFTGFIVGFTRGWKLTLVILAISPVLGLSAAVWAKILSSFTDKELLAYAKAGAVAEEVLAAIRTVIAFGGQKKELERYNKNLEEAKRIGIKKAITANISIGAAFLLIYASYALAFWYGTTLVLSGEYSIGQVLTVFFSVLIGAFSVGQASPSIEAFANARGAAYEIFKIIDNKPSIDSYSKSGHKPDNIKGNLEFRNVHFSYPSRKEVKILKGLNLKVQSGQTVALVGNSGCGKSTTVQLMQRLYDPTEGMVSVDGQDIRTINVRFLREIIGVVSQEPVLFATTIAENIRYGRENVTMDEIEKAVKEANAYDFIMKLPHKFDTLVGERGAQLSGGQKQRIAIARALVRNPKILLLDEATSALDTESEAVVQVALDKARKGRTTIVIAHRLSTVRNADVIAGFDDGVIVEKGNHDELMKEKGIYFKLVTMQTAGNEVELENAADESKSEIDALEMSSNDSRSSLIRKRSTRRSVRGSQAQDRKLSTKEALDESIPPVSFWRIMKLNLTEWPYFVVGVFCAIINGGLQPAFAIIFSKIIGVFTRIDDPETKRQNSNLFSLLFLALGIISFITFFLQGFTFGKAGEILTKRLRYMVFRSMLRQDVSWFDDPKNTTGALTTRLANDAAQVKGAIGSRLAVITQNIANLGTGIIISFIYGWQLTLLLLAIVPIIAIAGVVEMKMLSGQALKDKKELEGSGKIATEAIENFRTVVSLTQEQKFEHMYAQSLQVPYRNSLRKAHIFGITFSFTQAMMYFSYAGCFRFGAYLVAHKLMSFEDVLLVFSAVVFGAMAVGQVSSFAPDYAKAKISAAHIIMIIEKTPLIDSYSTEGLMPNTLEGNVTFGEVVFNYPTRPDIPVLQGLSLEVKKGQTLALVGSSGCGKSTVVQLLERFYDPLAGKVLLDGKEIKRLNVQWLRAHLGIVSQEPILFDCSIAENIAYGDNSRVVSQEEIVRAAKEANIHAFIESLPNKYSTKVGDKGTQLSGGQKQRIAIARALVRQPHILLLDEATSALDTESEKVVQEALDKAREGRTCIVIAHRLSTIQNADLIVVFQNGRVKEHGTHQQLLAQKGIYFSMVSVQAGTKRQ

## COc1cc2c(c(OC)c1OC)-c1ccc(OC)c(=O)cc1[C@@H](NC(C)=O)CC2 [Colchicine]
Hamster Abcb1a Pgp
  pIC50: 3.64

## COC(=O)C1=C(C)NC(C)=C(C(=O)OCCN(C)Cc2ccccc2)C1c1cccc([N+](=O)[O-])c1 (centres unmarked) [Nicardipine]
Human MDR1 Pgp
  pIC50: 4.96
